The target in one experiment is Nociceptin receptor (Homo sapiens, UniProt P41146). Description: Binding Assay: The compounds were examined with membranes of recombinant CHO-ORL 1 cells in a receptor binding assay with 3H-nociceptin/orphanin FQ. This test system was conducted in accordance with the method outlined by Ardati et al. (Mol. Pharmacol., 51, 1997, pp. 816-824). The concentration of 3H-nociceptin/orphanin FQ amounted to 0.5 nM in these tests. The binding assays were conducted in eac.

Chains of the proteins cited; added tags and fusions are not shown. Lines headed by an entry give the natural chain unless they say otherwise; changes in a name come on top.
UniProt P41146: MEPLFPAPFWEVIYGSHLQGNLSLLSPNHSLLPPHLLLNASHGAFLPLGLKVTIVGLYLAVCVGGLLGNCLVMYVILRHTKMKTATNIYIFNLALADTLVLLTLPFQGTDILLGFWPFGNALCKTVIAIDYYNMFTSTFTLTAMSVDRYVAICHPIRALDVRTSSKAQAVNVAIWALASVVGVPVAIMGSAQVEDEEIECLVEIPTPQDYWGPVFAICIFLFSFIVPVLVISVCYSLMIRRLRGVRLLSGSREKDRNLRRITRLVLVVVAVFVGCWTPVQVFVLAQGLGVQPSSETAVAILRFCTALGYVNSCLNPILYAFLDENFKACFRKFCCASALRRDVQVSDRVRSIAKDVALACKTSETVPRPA
UniProt P35372, whole entry, looked up: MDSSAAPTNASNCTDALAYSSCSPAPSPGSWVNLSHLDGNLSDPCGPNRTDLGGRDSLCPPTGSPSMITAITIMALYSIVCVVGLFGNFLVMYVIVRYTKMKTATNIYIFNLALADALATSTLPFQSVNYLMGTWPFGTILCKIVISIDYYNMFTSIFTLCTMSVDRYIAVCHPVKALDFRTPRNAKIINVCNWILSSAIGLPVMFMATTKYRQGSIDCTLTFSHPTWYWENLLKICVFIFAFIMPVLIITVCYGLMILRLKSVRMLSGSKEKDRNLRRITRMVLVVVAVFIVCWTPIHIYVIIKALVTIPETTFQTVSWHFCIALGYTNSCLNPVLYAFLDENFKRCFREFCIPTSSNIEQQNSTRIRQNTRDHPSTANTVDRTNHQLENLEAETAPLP
UniProt P41145: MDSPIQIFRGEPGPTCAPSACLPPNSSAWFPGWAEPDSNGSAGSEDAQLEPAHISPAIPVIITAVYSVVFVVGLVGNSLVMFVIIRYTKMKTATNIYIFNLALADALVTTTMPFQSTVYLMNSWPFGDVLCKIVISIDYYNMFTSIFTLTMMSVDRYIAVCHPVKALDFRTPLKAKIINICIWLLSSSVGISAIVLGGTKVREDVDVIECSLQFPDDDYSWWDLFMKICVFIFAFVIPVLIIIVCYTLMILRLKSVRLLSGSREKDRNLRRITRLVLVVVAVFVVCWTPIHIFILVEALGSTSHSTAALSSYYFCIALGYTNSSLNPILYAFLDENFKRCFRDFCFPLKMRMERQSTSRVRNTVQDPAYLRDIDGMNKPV

The next experiment concerns the target Mu-type opioid receptor (Homo sapiens, UniProt P35372). The experiment can be described thus: Binding Assay: The affinity to the human μ-opiate receptor was determined in a homogeneous preparation in microtiter plates. For this, dilution series of the respective compound to be tested were incubated for 90 minutes at room temperature with a receptor membrane preparation (15-40 mg of protein per 250 μl of incubation batch) of CHO-K 1 cells, which express the human μ-opiate receptor (RB-HOM r.

Experiment [1] has as its target Kappa-type opioid receptor (Homo sapiens, UniProt P41145). Description: Binding Assay: The determination occurred in a homogeneous batch in microtiter plates. For this, dilution series of the respective substances to be tested were incubated for 90 minutes at room temperature with a receptor membrane preparation (7 μg of protein per 250 μl of incubation batch) of CHO-K 1 cells, which express the human κ-opiate receptor, in the presence of 1 nmol/l of the radioactive l.

Several values for one entry are separate records, joined by “and”; a condition that tells them apart may be missing. Equal values may be shown once.

Consider `CN(C)C(=O)CN(C)C1(c2ccccc2)CCC(c2ccccc2)(N(C)C)CC1` (configuration not stated), for which the Ki (as a rule, a dissociation constant, usually derived from enzyme kinetics or from competition with a known ligand) was 230 nM at Nociceptin receptor; 1420 nM and 2600 nM on Mu-type opioid receptor.
On to `CN(C)C1(c2ccccc2)CCC(c2ccccc2)(N(C)CCO)CC1` (single isomer, unassigned), for which the inhibition constant Ki at Nociceptin receptor was 465 nM; on Mu-type opioid receptor, 2900 nM.
With `Cc1c(C2(N3CCCCC3)CCC(c3ccccc3)(N(C)C)CC2)[nH]c2ccccc12` (configuration not stated), the Ki at Nociceptin receptor is 1050 nM.
Take `CCNC(=O)N(C)C1(c2ccccc2)CCC(c2ccccc2)(N(C)C)CC1` (single isomer, unassigned): the Ki at Nociceptin receptor was 95.5 nM and 51 nM.
In the case of `Cc1ccc(C2(N(C)C)CCC(O)(c3ccccc3)CC2)cc1` (configuration not stated), the Ki in experiment [1] turned out to be 1460 nM.
In the case of `CNC1(c2[nH]c3ccccc3c2C)CCC(c2cccc(F)c2)(N(C)C)CC1` (configuration not stated), on Mu-type opioid receptor, the Ki amounted to 155 nM.
Consider `CN(C)C1(CC2CCCC2)CCC(c2ccccc2)(N(C)C)CC1` (configuration not stated), for which, on Nociceptin receptor, the Ki was determined as 89.5 nM.
For `CN(C)CC1(Cc2ccccc2)CCC(c2ccccc2)(N(C)C)CC1` (configuration not stated), the Ki on Nociceptin receptor came to 1890 nM; on Mu-type opioid receptor, 215 nM.
Turning to `CN(C)C1(c2cccc(F)c2)CCC(C)(CNS(=O)(=O)/C=C/c2ccccc2)CC1` (single isomer, unassigned), on Nociceptin receptor, the inhibitory constant (Ki) is 77.5 nM and 48.5 nM.
Consider `CN(C)C1(c2ccccc2)CCC(c2ccccc2)(N(C)C(=O)/C=C/c2ccccc2)CC1` (single isomer, unassigned), for which the Ki on Mu-type opioid receptor is 14.2 nM and 8.05 nM.
The same measure, in the same setting: in the case of `CNC1(c2ccccc2)CCC(c2ccccc2)(N(C)C)CC1` (single isomer, unassigned) it was 640 nM.
Regarding `CN(C)C1(C(=O)c2cc3ccccc3n2C)CCC(c2ccccc2)(N(C)C)CC1` (single isomer, unassigned), the Ki on Nociceptin receptor was 940 nM and 635 nM; at Mu-type opioid receptor it was 70.5 nM.
Take `CN(Cc1c[nH]c2ccccc12)CC1(C)CCC(c2ccccc2)(N(C)C)CC1` (single isomer, unassigned): the inhibition constant Ki at Nociceptin receptor was determined as 730 nM; at Mu-type opioid receptor, 385 nM.
For the compound `CN(C)C1(c2ccccc2)CCC(c2ccccc2)(N(C)C(=O)NCc2ccccc2)CC1` (single isomer, unassigned), the Ki on Mu-type opioid receptor is 1.5 nM and 2.2 nM.
Regarding `CNc1nc(NC)nc(N(C)C2(c3ccccc3)CCC(c3ccccc3)(N(C)C)CC2)n1` (single isomer, unassigned), at Nociceptin receptor, the Ki amounted to 525 nM.
Turning to `CN(C)C1(c2ccccc2)CCC(c2ccccc2)(N(C)CC(=O)O)CC1` (single isomer, unassigned), the inhibitory constant (Ki) at Nociceptin receptor was 4010 nM; at Mu-type opioid receptor, 10200 nM and 5200 nM.
For `Cc1c(C2(N(C)C)CCC(c3ccccc3)(N(C)C)CC2)[nH]c2ccc(F)cc12` (single isomer, unassigned), the Ki at Nociceptin receptor was 2050 nM; on Mu-type opioid receptor, 255 nM.
On to `CN(C)C1(c2ccccc2)CCC(c2ccccc2)(N(C)Cc2cccc(F)c2)CC1` (single isomer, unassigned), for which the Ki on Mu-type opioid receptor was 39 nM.
Consider `CN(C)C1(c2ccccc2)CCC(O)(c2ccccc2)CC1` (configuration not stated), for which, in experiment [1], the Ki amounted to 2240 nM.
Regarding `CNC1(c2ccccc2)CCC(CC2CCCC2)(N(C)C)CC1` (single isomer, unassigned), the Ki at Nociceptin receptor was 530 nM and 375 nM.
As to `CNC1(c2ccccc2)CCC(c2ccc(C(F)(F)F)cc2)(N(C)C)CC1` (single isomer, unassigned), the figures for the Ki at Nociceptin receptor and at Mu-type opioid receptor were 360 nM and 1190 nM, respectively.
Consider `CNC1(c2ccccc2)CCC(Cc2ccccc2)(CN(C)C)CC1` (configuration not stated), for which the results for the Ki on Nociceptin receptor and on Mu-type opioid receptor were 3960 nM and 1110 nM, respectively.
`CN(C)C1(c2ccccc2)CCC(C(=N)c2cc3ccccc3n2C)(N2CCCC2)CC1` (configuration not stated): the inhibition constant (Ki) at Nociceptin receptor stood at 180 nM; on Mu-type opioid receptor it was 49 nM.
Turning to `CNC1(c2ccccc2)CCC(c2cccs2)(N(C)C)CC1` (single isomer, unassigned), the Ki on Nociceptin receptor is 53.5 nM; at Mu-type opioid receptor, 555 nM.
For `COc1ccc(Oc2nc(Oc3ccc(OC)cc3)nc(N(C)C3(c4ccccc4)CCC(c4ccccc4)(N(C)C)CC3)n2)cc1` (single isomer, unassigned), in that order: 210 nM and 2400 nM.
For `CNC1(c2ccccc2)CCC(c2ccc(OC)cc2)(N(C)C)CC1` (single isomer, unassigned), in that order: 207 nM and 650 nM.
For the compound `CN(C)C1(c2ccccc2)CCC(c2ccccc2)(N(C)C(=O)c2cccc(C(F)(F)F)c2)CC1` (single isomer, unassigned), the figures for the Ki at Nociceptin receptor and at Mu-type opioid receptor were 0.54 nM and 1.2 nM, respectively.
As to `CN(C)C1(Cc2ccccc2)CCC(c2ccccc2)(N(C)C)CC1` (single isomer, unassigned), the Ki at Mu-type opioid receptor is 80.5 nM and 155 nM.
In the case of `CN(C)C1(c2ccccc2)CCC(c2ccc(C(F)(F)F)cc2)(N(C)C)CC1` (single isomer, unassigned), on Nociceptin receptor, the Ki was 115 nM and 165 nM.
Regarding `CC(=O)NCC1(C)CCC(c2ccccc2)(N(C)C)CC1` (configuration not stated), the Ki at Nociceptin receptor was 1170 nM; at Mu-type opioid receptor it was 140 nM.
On to `CN(C)C1(c2ccccc2)CCC(c2ccccc2)(N(C)C(=O)C(c2ccccc2)c2ccccc2)CC1` (configuration not stated), for which the Ki on Mu-type opioid receptor amounted to 18 nM.
For the compound `CN(C)CC1(c2ccccc2)CCC(c2ccccc2)(N(C)C)CC1` (single isomer, unassigned), the results for the Ki at Nociceptin receptor and on Mu-type opioid receptor were 102 nM and 2460 nM, respectively.
For `CN(C)C1(c2ccccc2)CCC(c2ccccc2)(N(C)C)CC1` (single isomer, unassigned), in that order: 6 nM and 600 nM.
For `CN(C)c1nc(N(C)C)nc(N(C)C2(c3ccccc3)CCC(c3ccccc3)(N(C)C)CC2)n1` (configuration not stated), in that order: 930 nM and 255 nM.
Turning to `Cc1c(C2(N3CCCC3)CCC(c3ccccc3)(N(C)C)CC2)[nH]c2ccc(F)cc12` (single isomer, unassigned), the Ki on Nociceptin receptor was 190 nM; at Mu-type opioid receptor, 1580 nM.
Take `CN(C)C1(c2ccccc2)CCC(c2cccs2)(N(C)C)CC1` (single isomer, unassigned): the Ki at Nociceptin receptor amounted to 25.5 nM.
For `CN(C)C1(c2cccc(F)c2)CCC(C)(CNC(=O)/C=C/c2ccccc2)CC1` (single isomer, unassigned), the Ki at Nociceptin receptor was 1390 nM; on Mu-type opioid receptor, 1.8 nM.
Taken in the same sequence, the figures for `CN(C)C1(c2ccccc2)CCC(C(=O)c2cc3ccccc3n2C)(N2CCCC2)CC1` (single isomer, unassigned) were 990 nM and 1160 nM.
Turning to `CCCC(=O)OC1(c2[nH]c3ccccc3c2C)CCC(c2cccc(F)c2)(N(C)C)CC1` (configuration not stated), on Nociceptin receptor, the inhibitory constant (Ki) was determined as 108 nM.
Turning to `CN(C)C1(c2ccccc2)CCC(c2ccccc2)(N(C)C(=O)CCC(=O)O)CC1` (configuration not stated), the affinity at Mu-type opioid receptor corresponds to a Ki of 9020 nM.
As to `CN(C)C1(c2ccccc2)CCC(c2ccccc2)(N(C)CCCCO)CC1` (configuration not stated), the Ki amounted to 18 nM at Nociceptin receptor and 415 nM on Mu-type opioid receptor.
For `CNc1nc(Oc2ccc(OC)cc2)nc(N(C)C2(c3ccccc3)CCC(c3ccccc3)(N(C)C)CC2)n1` (single isomer, unassigned), in that order: 5.35 nM and 740 nM.
Consider `Cc1c(C2(N(C)C)CCC(c3ccccc3)(N(C)C)CC2)[nH]c2ccccc12` (single isomer, unassigned), for which the Ki at Nociceptin receptor turned out to be 993 nM; at Mu-type opioid receptor, 410 nM.
